Laboratory results as given in US20240384325A1, “SPLIT AND POOL IDENTIFICATION OF RBP TARGETS (SPIDR)” (California Institute of Technology, priority 2023, published 2024).

Legend:
mTOR kinase [1] = target: T1, mTOR kinase (Homo sapiens, UniProt P42345); assay: SPIDR mapping of RBP-RNA binding in torin-treated versus control cells; assay type: cell-based; details: HEK293T cells, 250 nM torin, 18 hours, vs solvent-only control
T1 construct: endogenous in cells; host or cells: HEK293T (ATCC, CRL-3216)
Protocol: To explore the mechanism of translational suppression of TOP-containing mRNAs upon mTOR inhibition, HEK293T cells were treated with torin, a drug that inhibits mTOR kinase. SPIDR was adapted to map multiple independent samples within a single split- and -pool barcoding experiment (FIG. 6A, FIG. 15; see Materials and Methods, below, for details) and used this approach to perform SPIDR on >50 distinct RBPs, including LARP1, numerous translational initiation factors, and 4 negative controls in both torin-treated and untreated conditions.
Torin-1 treatment HEK293T cells were treated at a final concentration of 250 nM Torin-1 (Cell Signaling Technology, #14379) in standard HEK293T media for 18 hours prior to UV-crosslinking and harvesting.
Compared to previously published approaches, the number of barcodes per round was reduced, but the rounds of split and pool barcoding was increased. […] For example, for the K562 cells pooled experiment, 6 rounds of 24 barcodes were used for combinatorial barcoding (with a scheme of Odd, Even, Odd, Even, Odd, Terminal tag). For the HEK293T cells mTOR inhibition experiment, 6 rounds of 36 barcodes were used for combinatorial barcoding to achieve sufficient barcode complexity. Of the 36 barcodes used in round one of the ligations, 18 were used to label the control condition and the remaining 18 were used to label the torin treated condition. The samples were then pooled together for the remaining 5 rounds of ligation.
Background corrected bedgraphs were generated from control and +Torin conditions for each RBP in each condition. […] To normalize for possible detection bias due to fewer antibody beads in one condition versus the other we adjusted the map value by the ratio of antibody beads as determined by number of bead clusters corresponding to each antibody in each respective condition. Number of antibody (bead clusters) were defined and calculated using the same values used to generate the split bam files for each protein (options: minimum number of oligos=3, fraction unique=0.8, max number of RNAs in clusters=100). […]

mTOR kinase [2] = target: T1, mTOR kinase; assay: Quantitative mass spectrometry of global protein levels in torin-treated versus untreated cells; assay type: cell-based; details: HEK293T cells, 250 nM Torin-1, LC-MS/MS, vs control
Excerpt: To ensure that mTOR inhibition robustly leads to translational suppression of TOP-containing mRNAs, global protein levels in torin-treated and untreated cells were quantified using quantitative mass spectrometry (see Materials and Methods, below, for details) to determine protein level changes globally. […] Indeed, this translational suppression was directly proportional to the strength of the TOP-motif contained within the 5′-UTR of each mRNA (FIG. 6B).
For the protein changes CDF plots, we first selected for the 2000 highest expressed genes based on previous RNA-seq data84. […] The input samples were down sampled to 20M reads prior to TPM calculation. Feature counts was used to calculate read overlaps with hg38 protein coding refseq genes and further converted to TPM values. […]
5 million cells each of control and 250 nM Torin-1 treated HEK cells were lysed in 250 μL Mass Spec Lysis Buffer (8M urea, 75 mM NaCl, 50 mM Tris pH 8.0, 1 mM EDTA) for 30 min at room temperature. Samples were then clarified by centrifugation at 23000 g for 5 minutes, and the protein content in the supernatant was measured by BCA assay (ThermoFisher, #PI23227). […]
The Torin treated and control total lysate samples were measured in a Data Independent Acquisition (DIA) mode. MS1 Spectra were measured with a resolution of 120,000, an AGC target of 5e6 and a mass range from 350 to 1650 m/z. […]

## CCC(=O)N1CCN(c2ccc(-n3c(=O)ccc4cnc5ccc(-c6cnc7ccccc7c6)cc5c43)cc2C(F)(F)F)CC1 [torin, Torin-1]
mTOR kinase [1]
  change in number of RNA reads purified by LARP1 upon mTOR inhibition: no global change
  increase in overall number of RNA reads for 4EBP1 upon torin treatment relative to control: > 20 fold
mTOR kinase [1]; p-value <5.4×10-16, Mann-Whitney
  increase in levels of binding of LARP1 at TOP mRNAs upon mTOR inhibition: 1.7 fold
mTOR kinase [2]
  level of proteins encoded from TOP motif-containing mRNAs upon torin-treatment: striking reduction
